In US20170339949A1, “SUGAR SURFACTANTS AND USE THEREOF IN AGROCHEMICAL COMPOSITIONS” (Clariant International Ltd., priority 2014, published 2017):

Tested on: poinsettia plants of the Princettia variety
Assay: Plant compatibility after application to poinsettia plants
Conditions: 1 g/L, within one day

Substance: ethoxylated lauryl alcohol
- Plant compatibility: necroses: distinct necroses
